Membrane permeability of cyclic peptides

Collected by the curators of CycPeptMPDB (Li et al. 2023) from Kelly et al. 2021, doi:10.1021/jacs.0c06115.

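The data file gives no further conditions (lipid, pH, time, direction or concentration), and values from different papers need not be comparable. The list need not hold all peptides of the study. Peptides that the database sets to -10, its floor, are left out.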

PAMPA measures passive passage through an artificial lipid membrane. Values are log10 P with P in cm/s, so -5 is more permeable than -7.

structure (SMILES)	PAMPA (log10 cm/s)
CC(=O)N1CCC[C@H]1C(=O)N(C)[C@@H](CC(C)C)C(=O)N[C@@H]1C(=O)N[C@H](CC(C)C)C(=O)N(C)[C@H](CC(C)C)C(=O)N(C)[C@H](CC(C)C)C(=O)N(C)[C@@H](C)C(=O)N[C@@H](CC(C)C)C(=O)N2CCC[C@H]2C(=O)O[C@@H]1C	-5.60
CC(=O)N1CCC[C@H]1C(=O)N(C)[C@@H](CC(C)C)C(=O)N[C@@H]1C(=O)N[C@@H](CC(C)C)C(=O)N[C@H](CC(C)C)C(=O)N[C@H](CC(C)C)C(=O)N(C)[C@H](C)C(=O)N[C@H](CC(C)C)C(=O)N2CCC[C@H]2C(=O)O[C@@H]1C	-6.90
CC(=O)N1CCC[C@@H]1C(=O)N(C)[C@H](CC(C)C)C(=O)N[C@@H]1C(=O)N[C@@H](CC(C)C)C(=O)N(C)[C@@H](CC(C)C)C(=O)N(C)[C@H](CC(C)C)C(=O)N(C)[C@H](C)C(=O)N[C@H](CC(C)C)C(=O)N2CCC[C@H]2C(=O)O[C@@H]1C	-5.83
CC(=O)N1CCC[C@H]1C(=O)N[C@@H]1C(=O)N(C)[C@H](CC(C)C)C(=O)N[C@H](CC(C)C)C(=O)N[C@@H](CC(C)C)C(=O)N[C@H](CC(C)C)C(=O)N(C)[C@@H](C)C(=O)N[C@@H](CC(C)C)C(=O)N2CCC[C@@H]2C(=O)O[C@@H]1C	-5.82
CC(=O)N1CCC[C@@H]1C(=O)N(C)[C@H](CC(C)C)C(=O)N[C@@H]1C(=O)N(C)[C@H](CC(C)C)C(=O)N(C)[C@@H](CC(C)C)C(=O)N(C)[C@@H](CC(C)C)C(=O)N(C)[C@@H](C)C(=O)N[C@@H](CC(C)C)C(=O)N2CCC[C@H]2C(=O)O[C@@H]1C	-5.79
CC(=O)N1CCC[C@@H]1C(=O)N(C)[C@H](CC(C)C)C(=O)N[C@@H]1C(=O)N[C@@H](CC(C)C)C(=O)N(C)[C@@H](CC(C)C)C(=O)N(C)[C@H](CC(C)C)C(=O)N(C)[C@@H](C)C(=O)N[C@H](CC(C)C)C(=O)N2CCC[C@H]2C(=O)O[C@@H]1C	-6.51
CC(=O)N1CCC[C@@H]1C(=O)N(C)[C@H](CC(C)C)C(=O)N[C@@H]1C(=O)N[C@@H](CC(C)C)C(=O)N[C@@H](CC(C)C)C(=O)N(C)[C@@H](CC(C)C)C(=O)N(C)[C@@H](C)C(=O)N[C@H](CC(C)C)C(=O)N2CCC[C@H]2C(=O)O[C@@H]1C	-6.87
CC(=O)N1CCC[C@@H]1C(=O)N(C)[C@H](CC(C)C)C(=O)N[C@@H]1C(=O)N(C)[C@@H](CC(C)C)C(=O)N(C)[C@H](CC(C)C)C(=O)N[C@@H](CC(C)C)C(=O)N[C@@H](C)C(=O)N[C@@H](CC(C)C)C(=O)N2CCC[C@@H]2C(=O)O[C@@H]1C	-6.72
CC(=O)N1CCC[C@@H]1C(=O)N(C)[C@@H](CC(C)C)C(=O)N[C@@H]1C(=O)N[C@@H](CC(C)C)C(=O)N[C@@H](CC(C)C)C(=O)N[C@H](CC(C)C)C(=O)N[C@@H](C)C(=O)N[C@@H](CC(C)C)C(=O)N2CCC[C@H]2C(=O)O[C@@H]1C	-6.84
CC(=O)N1CCC[C@@H]1C(=O)N(C)[C@H](CC(C)C)C(=O)N[C@@H]1C(=O)N[C@@H](CC(C)C)C(=O)N[C@@H](CC(C)C)C(=O)N(C)[C@H](CC(C)C)C(=O)N(C)[C@@H](C)C(=O)N[C@H](CC(C)C)C(=O)N2CCC[C@H]2C(=O)O[C@@H]1C	-6.10
CC(=O)N1CCC[C@H]1C(=O)N(C)[C@@H](CC(C)C)C(=O)N[C@@H]1C(=O)N[C@H](CC(C)C)C(=O)N(C)[C@H](CC(C)C)C(=O)N(C)[C@H](CC(C)C)C(=O)N[C@H](C)C(=O)N[C@H](CC(C)C)C(=O)N2CCC[C@@H]2C(=O)O[C@@H]1C	-6.51
CC(=O)N1CCC[C@@H]1C(=O)N(C)[C@H](CC(C)C)C(=O)N[C@@H]1C(=O)N[C@@H](CC(C)C)C(=O)N(C)[C@@H](CC(C)C)C(=O)N(C)[C@H](CC(C)C)C(=O)N(C)[C@@H](C)C(=O)N[C@@H](CC(C)C)C(=O)N2CCC[C@@H]2C(=O)O[C@@H]1C	-5.73
CC(=O)N1CCC[C@@H]1C(=O)N(C)[C@@H](CC(C)C)C(=O)N[C@@H]1C(=O)N[C@@H](CC(C)C)C(=O)N[C@@H](CC(C)C)C(=O)N(C)[C@@H](CC(C)C)C(=O)N(C)[C@@H](C)C(=O)N[C@H](CC(C)C)C(=O)N2CCC[C@H]2C(=O)O[C@@H]1C	-6.54
CC(=O)N1CCC[C@H]1C(=O)N[C@@H]1C(=O)N[C@H](CC(C)C)C(=O)N[C@H](CC(C)C)C(=O)N(C)[C@@H](CC(C)C)C(=O)N[C@@H](CC(C)C)C(=O)N(C)[C@@H](C)C(=O)N[C@@H](CC(C)C)C(=O)N2CCC[C@@H]2C(=O)O[C@@H]1C	-5.19
CC(=O)N1CCC[C@H]1C(=O)N[C@@H]1C(=O)N(C)[C@H](CC(C)C)C(=O)N[C@@H](CC(C)C)C(=O)N[C@@H](CC(C)C)C(=O)N[C@@H](CC(C)C)C(=O)N[C@@H](C)C(=O)N[C@@H](CC(C)C)C(=O)N2CCC[C@@H]2C(=O)O[C@@H]1C	-6.81
CC(=O)N1CCC[C@@H]1C(=O)N(C)[C@@H](CC(C)C)C(=O)N[C@@H]1C(=O)N[C@@H](CC(C)C)C(=O)N[C@@H](CC(C)C)C(=O)N[C@H](CC(C)C)C(=O)N(C)[C@H](C)C(=O)N[C@H](CC(C)C)C(=O)N2CCC[C@H]2C(=O)O[C@@H]1C	-6.59
CC(=O)N1CCC[C@H]1C(=O)N(C)[C@H](CC(C)C)C(=O)N[C@@H]1C(=O)N[C@H](CC(C)C)C(=O)N[C@@H](CC(C)C)C(=O)N[C@@H](CC(C)C)C(=O)N[C@@H](C)C(=O)N[C@H](CC(C)C)C(=O)N2CCC[C@@H]2C(=O)O[C@@H]1C	-6.67
CC(=O)N1CCC[C@H]1C(=O)N(C)[C@@H](CC(C)C)C(=O)N[C@@H]1C(=O)N(C)[C@H](CC(C)C)C(=O)N[C@H](CC(C)C)C(=O)N(C)[C@H](CC(C)C)C(=O)N[C@@H](C)C(=O)N[C@@H](CC(C)C)C(=O)N2CCC[C@H]2C(=O)O[C@@H]1C	-5.99
CC(=O)N1CCC[C@H]1C(=O)N(C)[C@H](CC(C)C)C(=O)N[C@@H]1C(=O)N[C@@H](CC(C)C)C(=O)N[C@@H](CC(C)C)C(=O)N(C)[C@H](CC(C)C)C(=O)N(C)[C@H](C)C(=O)N[C@@H](CC(C)C)C(=O)N2CCC[C@H]2C(=O)O[C@@H]1C	-5.44
CC(=O)N1CCC[C@@H]1C(=O)N(C)[C@@H](CC(C)C)C(=O)N[C@@H]1C(=O)N[C@H](CC(C)C)C(=O)N(C)[C@H](CC(C)C)C(=O)N[C@H](CC(C)C)C(=O)N(C)[C@H](C)C(=O)N[C@H](CC(C)C)C(=O)N2CCC[C@H]2C(=O)O[C@@H]1C	-5.47

The first 3 entries again:

structure (SMILES)	PAMPA (log10 cm/s)
CC(=O)N1CCC[C@H]1C(=O)N(C)[C@@H](CC(C)C)C(=O)N[C@@H]1C(=O)N[C@H](CC(C)C)C(=O)N(C)[C@H](CC(C)C)C(=O)N(C)[C@H](CC(C)C)C(=O)N(C)[C@@H](C)C(=O)N[C@@H](CC(C)C)C(=O)N2CCC[C@H]2C(=O)O[C@@H]1C	-5.60
CC(=O)N1CCC[C@H]1C(=O)N(C)[C@@H](CC(C)C)C(=O)N[C@@H]1C(=O)N[C@@H](CC(C)C)C(=O)N[C@H](CC(C)C)C(=O)N[C@H](CC(C)C)C(=O)N(C)[C@H](C)C(=O)N[C@H](CC(C)C)C(=O)N2CCC[C@H]2C(=O)O[C@@H]1C	-6.90
CC(=O)N1CCC[C@@H]1C(=O)N(C)[C@H](CC(C)C)C(=O)N[C@@H]1C(=O)N[C@@H](CC(C)C)C(=O)N(C)[C@@H](CC(C)C)C(=O)N(C)[C@H](CC(C)C)C(=O)N(C)[C@H](C)C(=O)N[C@H](CC(C)C)C(=O)N2CCC[C@H]2C(=O)O[C@@H]1C	-5.83